Measured values reported in US8906844B2 (SYNTONIX PHARMACEUTICALS, dated 2014).

The chains behind the UniProt entries cited, without tags or fusion partners. Residues count along the entry.
UniProt P55899, 24-297: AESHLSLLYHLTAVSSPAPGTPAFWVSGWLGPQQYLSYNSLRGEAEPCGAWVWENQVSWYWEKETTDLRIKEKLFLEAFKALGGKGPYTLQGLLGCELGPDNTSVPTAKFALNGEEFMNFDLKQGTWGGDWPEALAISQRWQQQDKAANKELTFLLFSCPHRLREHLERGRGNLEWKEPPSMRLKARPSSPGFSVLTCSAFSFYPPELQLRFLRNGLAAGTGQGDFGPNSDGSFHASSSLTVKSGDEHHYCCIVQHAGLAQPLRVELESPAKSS

target: T1, soluble human FcRn (shFcRn) (Homo sapiens, UniProt P55899); assay: not given; assay type: binding; conditions: IgG competition ELISA, 3 nM human IgG, buffer pH 6
T1 construct: made in house; host or cells: Chinese hamster ovary (CHO) cells, glutamine synthetase expression system

Substance	IC50
F-Asp-TGHFGGLYP-Lys-NGP [Peptide No. 124]	22 µM
F-Pen-TGHFGpLYPCNGP [Peptide No. 145]	3.1 µM
RF-Pen-TG-(3-PiperidyalAla)-FG-Sar-NMeLeu-YPC [Peptide No. 263]	6.3 µM

target: T2, soluble human FcRn (Homo sapiens, UniProt P55899); assay: Equilibrium binding constants (KD) by surface plasmon resonance (Biacore); conditions: pH 6; read-out: KD (pH 6)
T2 construct: made in house; host or cells: Chinese hamster ovary (CHO) cells, glutamine synthetase expression system
Method: The following steps were performed to cross-link soluble human or cynomolgus FcRn to the dextran surface of a CM5 sensor chip (Biacore AB, Uppsala, Sweden) by an amine coupling reaction involving 1-ethyl-(3-dimethylaminopropyl)-carbodiimide hydrochloride (EDC) (Biacore AB, Uppsala, Sweden) and N-hydroxysuccinimide (NHS) (Biacore AB, Uppsala, Sweden) as recommended by Biacore (BIAapplications Handbook, version AB, section 4.2, Biacore AB, Uppsala, Sweden). The FcRn protein was diluted in 50 mM sodium acetate, pH 4.5 (Biacore AB, Uppsala, Sweden) to a concentration of 10 to 30 μg/ml and used to coat one flow cell on the sensor chip. Residual sites on the FcRn flow cell were blocked with 1 M ethanolamine hydrochloride pH 8.5 (Biacore AB, Uppsala, Sweden). A control flow cell was blocked with ethanolamine for reference subtraction. For analysis of the monomeric peptides, FcRn was coated to a final density of 4000-5000 response units (RU). For analysis of the peptide dimers, FcRn was coated to a density of 2000-2500 RU. All SPR measurements were performed using a BIACORE 3000 Instrument (Biacore AB Uppsala, Sweden). For measurements done at either pH 6 or pH 7.4, experiments were performed in 50 mM phosphate, 100 mM sodium chloride, 0.01% surfactant P20 (Biacore AB, Uppsala, Sweden).
Ten 2-fold dilutions of the peptide were injected over the FcRn-CM5 chip at a rate of 20 μl/min for 2 min. The peptide was dissociated from the chip for 2.5 minutes with buffer. Any remaining peptide was removed from the chip with a 30 second injection of HBS-P buffer (Biacore AB, Uppsala, Sweden) at a rate of 30 μl/min. Sensorgrams were generated and analyzed using BiaEval software version 3.1 (Biacore AB, Uppsala, Sweden). The equilibrium RU observed for each injection was plotted against concentration. The equilibrium KD values were derived by analysis of the plots using the steady state affinity model included in the BiaEval software.
Ten, 2-fold dilutions of the peptide were injected over the FcRn-CM5 chip at a rate of 30 μl/min for 10 min. Peptides were dissociated from the chip for 10 minutes with buffer. Any remaining peptide was removed from the chip with two, 60 second injections of a solution containing 50 mM Tris-hydrochloride, 100 mM NaCl, 0.01% surfactant P20 pH 9.0 at 100 μl/min.
Sensorgrams were generated and analyzed using BiaEval software version 3.1 (Biacore AB, Uppsala, Sweden). The equilibrium RU observed for each injection was plotted against concentration. The equilibrium KD values were derived by analysis of the plots using the steady state affinity model included in the BiaEval software.

Substance	Kd
QRF-Pen-TGH-(Tic)-GGLYPCNGP [Peptide No. 103]	> 250 µM
QRF-Asp-TGHFGGLYP-Orn-NGP [Peptide No. 85]	2.7 µM
QRF-Asp-TGHFGGLY-Lys-NGP [Peptide No. 107]	> 250 µM
QRFCTG-Dab-FGGLYPCNGP [Peptide No. 36]	211 µM
RF-Pen-TG-(3-PiperidyalAla)-FG-Sar-NMeLeu-YPC [Peptide No. 263]	0.66 µM
QRF-Pen-TGH-(phenylGly)-GGLYPCNGP [Peptide No. 102]	> 250 µM
QRFCTGHF-Apa-LYPCNGP [Peptide No. 35]	220 µM
QRF-Pen-TG-Dap-FGGLYPCNGP [Peptide No. 109]	> 100 µM

same assay, conditions: pH 7.4; read-out: KD pH 7.4

Substance	Kd
RF-Pen-TG-(3-PiperidyalAla)-FG-Sar-NMeLeu-YPC [Peptide No. 263]	0.86 µM
